{"source": "patent US20240216551A1", "about": "“RADIOPHARMACEUTICALS BASED ON ((R)-1-((6-HYDRAZINYLNICOTINOYL)-D-ALANYL)PYRROLIDIN-2-YL)BORONIC ACID (HYNIC-IFAP) FOR DETECTING THE OVEREXPRESSION OF FIBROBLAST ACTIVATION PROTEIN” (INSTITUTO NACIONAL DE INVESTIGACIONES NUCLEARES, priority 2021, published 2024)", "key": {"breast cancer tumors": {"test_system": "breast cancer tumors", "conditions": "human, in vivo"}, "lung tumors": {"test_system": "lung tumors", "conditions": "human, in vivo"}}, "data": [{"substance": "^18F-FDG", "values": [{"measurement": "tumor detection by imaging", "setting": "breast cancer tumors", "result": "detect with high sensitivity breast cancer tumors"}, {"measurement": "tumor detection by imaging", "setting": "lung tumors", "result": "detect lung tumors with high sensitivity"}]}]}
